Patent US5753458A, “Acylation method for penicillins and cephalosporins” (Gist-Brocades B.V., priority 1994, dated 1998)

Sequences of proteins named here, by UniProt entry; tags and fusion partners are left off. Residues count along the entry.
UniProt P06875, 27-235: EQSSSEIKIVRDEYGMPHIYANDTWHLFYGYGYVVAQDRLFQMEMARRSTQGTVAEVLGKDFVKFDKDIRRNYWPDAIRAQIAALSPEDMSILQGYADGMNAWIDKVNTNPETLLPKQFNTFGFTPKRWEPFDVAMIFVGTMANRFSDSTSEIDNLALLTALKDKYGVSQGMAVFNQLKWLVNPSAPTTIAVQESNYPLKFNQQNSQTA
UniProt P06875, 290-846: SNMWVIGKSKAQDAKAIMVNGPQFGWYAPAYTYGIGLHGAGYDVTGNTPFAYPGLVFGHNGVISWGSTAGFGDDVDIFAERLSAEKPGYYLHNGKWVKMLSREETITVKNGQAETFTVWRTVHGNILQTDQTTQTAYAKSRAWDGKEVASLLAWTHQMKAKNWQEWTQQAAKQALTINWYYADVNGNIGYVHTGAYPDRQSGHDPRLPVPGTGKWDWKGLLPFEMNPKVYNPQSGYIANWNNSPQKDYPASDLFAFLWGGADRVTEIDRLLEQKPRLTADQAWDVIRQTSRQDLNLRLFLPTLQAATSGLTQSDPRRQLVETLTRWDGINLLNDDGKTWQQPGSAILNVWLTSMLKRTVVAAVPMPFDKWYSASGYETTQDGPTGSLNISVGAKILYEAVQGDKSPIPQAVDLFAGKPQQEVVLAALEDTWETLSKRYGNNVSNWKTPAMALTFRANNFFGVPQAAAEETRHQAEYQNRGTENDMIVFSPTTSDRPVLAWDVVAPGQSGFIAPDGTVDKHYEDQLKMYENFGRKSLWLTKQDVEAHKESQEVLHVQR

What was measured:
Type in all cases: biochemical
[1] = biological target: immobilized penicillin G acylase from E. coli (Escherichia coli, UniProt P06875); assay: Enzymatic amoxicillin synthesis with immobilized Pen G acylase, Phox concentration varied (Example 1); settings: Exp E; [Phox] 61.7 μM; enzyme 8.6 U/ml
Excerpt: (§1) V0 (Amox) is the initial velocity of Amox formation, and V0 (D-HPG) is the initial velocity of D-HPG formation, specified as μmoles/min/g enzyme, μmoles/min/ml reaction mixture, or nmoles/min/U (enzyme activity).
The ratio X is defined as the number of moles of D-HPGA consumed per mole of Amox produced. For practical use this can be transformed to X=1+moles D-HPG/moles Amox, wherein "moles D-HPG" is the molar amount of D-HPG produced by hydrolysis of the acylating agent and the desired product and "moles Amox" is the molar amount of Amox present in the reaction mixture. Thus, if X is 1 this means that only the desired synthesis takes place, no hydrolysis. If X is 2, this means that D-HPG and Amox are formed in equal amounts (on a molar basis). If X is 3, this means that twice as much D-HPG as Amox is present in the reaction mixture (on a molar basis). The ratio X can be calculated at any time during reaction, but in the following examples X is calculated at the reaction stop time, which is defined as the time at which 90 % of the theoretical yield of Amox is present in the reaction mixture (based on the inserted amount of 6-APA). Square brackets are used to designate molar concentrations. […]
Representative samples of the reaction mixtures including solid constituents were taken at regular intervals during the reactions and analyzed by HPLC. […]

[2] = biological target: T1, immobilized Pen G acylase preparations (Escherichia coli, UniProt P06875); assay: Enzymatic amoxicillin synthesis with various immobilized Pen G acylase preparations, Phox varied (Example 3); settings: Immobilizate a (E. coli, 8.6 U/ml)
T1 construct: Recordati (preparation c); Boehringer Mannheim, experimental preparation (preparation d)
Excerpt: (§2) The ratio X is defined as the number of moles of D-HPGA consumed per mole of Amox produced. For practical use this can be transformed to X=1+moles D-HPG/moles Amox, wherein "moles D-HPG" is the molar amount of D-HPG produced by hydrolysis of the acylating agent and the desired product and "moles Amox" is the molar amount of Amox present in the reaction mixture. Thus, if X is 1 this means that only the desired synthesis takes place, no hydrolysis. If X is 2, this means that D-HPG and Amox are formed in equal amounts (on a molar basis). If X is 3, this means that twice as much D-HPG as Amox is present in the reaction mixture (on a molar basis). The ratio X can be calculated at any time during reaction, but in the following examples X is calculated at the reaction stop time, which is defined as the time at which 90 % of the theoretical yield of Amox is present in the reaction mixture (based on the inserted amount of 6-APA). Square brackets are used to designate molar concentrations.
(§3) In Examples 1-8 the following standard conditions for enzymatic amoxicillin synthesis have been used (see patent application No. WO 92/01061 for further details):
(§4) During the reactions, the pH value of the reaction mixtures was kept constant by titration with 2M sulphuric acid.
(§5) Representative samples of the reaction mixtures including solid constituents were taken at regular intervals during the reactions and analyzed by HPLC.
(§6) Four different immobilized Pen G acylase preparations were used: a) immobilized penicillin G acylase from E. coli; enzyme dosing 8.6 U/ml; b) agarose based immobilizate, dosing 12.0 U/ml; c) immobilizate obtained from Recordati, dosing 12.0 U/ml; and d) immobilizate obtained from Boehringer Mannheim (experimental preparation), dosing 11.5 U/ml.
(§7) Each immobilizate was tested under standard synthesis conditions in presence of Phox 2.6, 28.4 and 56.8 μM, respectively.

[3] = system: immobilized Pen G acylase preparations; assay: as above
Excerpt: as §2, §3, §4, §5, §6, §7

[4] = biological target: T2, agarose based penicillin G acylase immobilizate (Escherichia coli, UniProt P06875); assay: Enzymatic amoxicillin synthesis with varying enzyme amounts and constant Phox (Example 4); settings: [Phox] 31 μM
T2 construct: processed alpha/beta heterodimer cut from one precursor (signal and spacer peptides removed)
Excerpt: as §1, §2, §3, §4, §5
An agarose based penicillin G acylase immobilizate was employed in the following experiments. The immobilizate which was kept in water was drained of excess water on a filter by applying suction for 1 min. Phox was added to a concentration of 31 μM in the reaction mixture.

Soluble Pen G acylase = biological target: T3, Soluble Pen G acylase (Escherichia coli, UniProt P06875); assay: Enzymatic amoxicillin synthesis with soluble Pen G acylase, Phox varied (Example 5)
T3 construct: purchased Calbiochem; GBF 516329 (Calbiochem)
Excerpt: as §1, §2, §3, §4, §5
Soluble Pen G acylase preparations were obtained from Calbiochem, art. No. 516329, ca. 1500 U/ml, and from GBF, ca. 300 U/ml. An enzyme dosage of 60 or 61 U/ml were employed in the two series.

[5] = Calbiochem enzyme 61 U/ml, [Phox] 2.6 μM
[6] = Calbiochem enzyme 61 U/ml, [Phox] 56.8 μM
[7] = Calbiochem enzyme 61 U/ml, [Phox] 142 μM
[8] = GBF enzyme 60 U/ml, [Phox] 2.6 μM
[9] = GBF enzyme 60 U/ml, [Phox] 56.8 μM
[10] = GBF enzyme 60 U/ml, [Phox] 142 μM

O=C(O)COc1ccccc1 [Phox, phenoxyacetic acid]
X at reaction stop time [1]: 2.05 | Ratio X at reaction stop time ([2]; [Phox] 2.6 μM): 2.9 | Ratio X at reaction stop time ([2]; [Phox] 28.4 μM): 2.35 | Ratio X at reaction stop time ([2]; [Phox] 56.8 μM): 2.05 | Ratio X at reaction stop time ([3]; Immobilizate b (agarose based, 12.0 U/ml), [Phox] 2.6 μM): 2.4 | Ratio X at reaction stop time ([3]; Immobilizate b (agarose based, 12.0 U/ml), [Phox] 28.4 μM): 1.85 | Ratio X at reaction stop time ([3]; Immobilizate b (agarose based, 12.0 U/ml), [Phox] 56.8 μM): 1.7 | Ratio X at reaction stop time ([3]; Immobilizate c (Recordati, 12.0 U/ml), [Phox] 2.6 μM): 2.3 | Ratio X at reaction stop time ([3]; Immobilizate c (Recordati, 12.0 U/ml), [Phox] 28.4 μM): 1.9 | Ratio X at reaction stop time ([3]; Immobilizate c (Recordati, 12.0 U/ml), [Phox] 56.8 μM): 1.95 | Ratio X at reaction stop time ([3]; Immobilizate d (Boehringer Mannheim experimental, 11.5 U/ml), [Phox] 2.6 μM): 2.5 | Ratio X at reaction stop time ([3]; Immobilizate d (Boehringer Mannheim experimental, 11.5 U/ml), [Phox] 28.4 μM): 1.95 | Ratio X at reaction stop time ([3]; Immobilizate d (Boehringer Mannheim experimental, 11.5 U/ml), [Phox] 56.8 μM): 1.9 | Initial velocity V0 (D-HPG) ([4]; Exp A, enzyme dosage 11.9 U/ml): 0.60 µmol/min/mL | X at stop time ([4]; Exp B, enzyme dosage 23.8 U/ml): 1.8 | Initial velocity V0 (Amox) ([4]; Exp C, enzyme dosage 47.5 U/ml): 6.6 µmol/min/mL | Initial velocity V0 (Amox) (Soluble Pen G acylase; [5]): 52.2 nmoles/min/U | Initial velocity V0 (D-HPG) (Soluble Pen G acylase; [5]): 33.4 nmoles/min/U | X at reaction stop time (Soluble Pen G acylase; [5]): 2.1 | Initial velocity V0 (Amox) (Soluble Pen G acylase; [6]): 11.0 nmoles/min/U | Initial velocity V0 (D-HPG) (Soluble Pen G acylase; [6]): 6.8 nmoles/min/U | X at reaction stop time (Soluble Pen G acylase; [6]): 1.8 | Initial velocity V0 (Amox) (Soluble Pen G acylase; [7]): 5.5 nmoles/min/U | Initial velocity V0 (D-HPG) (Soluble Pen G acylase; [7]): ca. 4.4 nmoles/min/U | X at reaction stop time (Soluble Pen G acylase; [7]): ca. 1.7 | Initial velocity V0 (Amox) (Soluble Pen G acylase; [8]): 61.1 nmoles/min/U | Initial velocity V0 (D-HPG) (Soluble Pen G acylase; [8]): 50.0 nmoles/min/U | X at reaction stop time (Soluble Pen G acylase; [8]): 2.1 | Initial velocity V0 (Amox) (Soluble Pen G acylase; [9]): 21.7 nmoles/min/U | Initial velocity V0 (D-HPG) (Soluble Pen G acylase; [9]): 14.4 nmoles/min/U | X at reaction stop time (Soluble Pen G acylase; [9]): 1.8 | Initial velocity V0 (Amox) (Soluble Pen G acylase; [10]): 6.3 nmoles/min/U | Initial velocity V0 (D-HPG) (Soluble Pen G acylase; [10]): 3.6 nmoles/min/U | X at reaction stop time (Soluble Pen G acylase; [10]): 1.7
